The term IC50 denotes the concentration that gives 50% inhibition. Lower therefore signals higher potency.

Structures are written as SMILES.

Experimental findings from ChEMBL document CHEMBL5576072, “Discovery of a potent and selective JAK1-targeting PROTAC degrader with anti-tumor activities” (Bioorg Med Chem Lett, 2024) are described below.

One assay relates to HEL. Put plainly: Antiproliferative activity against HEL cells. As to conditions: Homo sapiens.
A further assay concerns K562. Put plainly: Antiproliferative activity against human K562 cells.
Another assay has as its system THP-1. Put plainly: Antiproliferative activity against human THP-1 cells.

For `N#CCNC(=O)c1ccc(-c2ccnc(Nc3ccc(N4CCOCC4)cc3)n2)cc1` [MOMELOTINIB], the IC50 with HEL stood at 0.95 µM; with K562, 4.7 µM; in the assay with THP-1 it was 8.8 µM.
